{"source": "ChEMBL document CHEMBL5042498", "about": "“Development of 3-(4-Chlorophenyl)-1-(phenethyl)urea Analogues as Allosteric Modulators of the Cannabinoid Type-1 Receptor: RTICBM-189 is Brain Penetrant and Attenuates Reinstatement of Cocaine-Seeking Behavior” (J Med Chem, 2022)", "assay": "Ratio of drug level in Sprague-Dawley rat brain to plasma assessed as permeability coefficient at 10 mg/kg, po by LC-MS/MS", "type": "ADME, organism-based", "data": [{"smiles": "O=C(NCCc1cccc(Cl)c1)Nc1ccc(Cl)cc1", "values": [{"measurement": "Ratio", "result": 2}]}]}
